Data taken from PMC10728591.

Molecular target: Human NatB (hNatB), complex of the catalytic subunit hNAA20 and the auxiliary subunit hNAA25 (human) (UniProt P61599)

Q: Which IC50 of inhibition of hNatB (SI, Fig. S6) does the source give for “CoA-αSFL (9), bisubstrate inhibitor of coenzyme A covalently conjugated to full-length human α-synuclein (from UniProt P37840 1-140)” here?
A: The IC50 of inhibition of hNatB (SI, Fig. S6) was 2.19 µM.
